Drawing on BindingDB's records for doi:10.1101/2020.07.17.207019 (National Institutes of Health, 2020), this text covers IC50 for one molecule.

The assay has as its target Replicase polyprotein 1ab (Severe acute respiratory syndrome coronavirus 2, UniProt P0DTD1).

In the case of `CCCC(C=O)NC(=O)C(CC(C)C)NC(=O)C(CC(C)C)NC(=O)OCc1ccccc1` (stereo unspecified) [MG-115], the half-inhibitory concentration (IC50) was found to be 12.7 µM. This lies in the double-digit micromolar range.

For orientation: IC50 means the point on the concentration scale where inhibition reaches its midpoint. High values mean a need for much substance, low ones inhibition by little substance.
